The nature of series [1]: Safety index (UD50/ED50 or MED), separation of activity from ulcerogenicity. The settings on record: in vivo. The source says:
From these diagrams, the correlation between the pharmacological activity of each compound and its ulcerogenicity and toxicity, i.e. the safety margin of each compound, can be clearly seen. In these Figures, the lines and letters have the following meanings:
The following conclusions can be drawn from Tables I to III and FIGS. 1 and 2. In the following description, the therapeutic index means LD50 /ED50 (or MED), and the safety index means UD50 /ED50 (or MED). The safety margin of a given compound is broader when it has larger therapeutic and or safety indices.

For series [2] the following is noted: in vivo. The source says:
In the following description, the therapeutic index means LD50 /ED50 (or MED), and the safety index means UD50 /ED50 (or MED).

For series [3], the system named is Gastrointestinal ulcer formation in fed rats. Description: Gastrointestinal ulcer formation in fed rats (ulcerogenicity). The settings on record: rat, in vivo. How it is done:
TEST 4. ULCEROGENICITY IN GASTROINTESTINAL TRACT
Gastrointestinal ulcer formation in fed rats
The test was carried out according to the method described in Science, 170, 183 (1970).

A further series relates to rats. Description: Overall comparison of lethal toxicity (Test 5). Type of series: in vivo. The note with it: vs compound 1. The procedure: (a) Single administration in rats
The mortality was observed on the 7th day after single administration of test compounds, and LD50 -value was calculated according to the method of Litchfield and Wilcoxon.
(§1) (b) Repeated administrations in rats
(§2) Test compounds were orally administered once daily for 5 days, and LD50 -value was calculated from the mortality on the 6th day.

Series [4] can be described thus: in vivo. The note with it: rat, po.
Series [5] is described as follows: in vivo. The settings on record: rat, po. The procedure: as §1, §2
This is another data set of the same source.

The structures appear in SMILES notation. A value given as a limit tells only on which side of the number the result lay.

Consider `CC(C(=O)OCCOCCO)c1ccc2c(c1)C(=O)Cc1ccccc1O2` (racemic) [compound D, 2-(2-Hydroxyethoxy)ethyl dl-2-(10,11-dihydro-11-oxodibenz[b,f]oxepin-2-yl)propionate], for which the “safety index relative to compound 1 (in words)” value in series [1] is “about two times”. Besides, in series [2], the “breadth of safety margin compared with compound 1” value is “far superior to compound 1”, the “therapeutic index compared with indomethacin” value is listed as “far larger therapeutic indices than indomethacin” and the “therapeutic index relative to compound 1 (in words)” value was “about two times”. In addition, the “ulcerogenicity relative to compound 1” value in series [3] was “less than one-half”. For the same molecule, the “toxicity relative to compound 1” value with rats is given as “less than one-half”.
For `Cc1ccc2c(c1)CC(=O)c1cc(CC(=O)O)ccc1O2` [compound B, 8-Methyl-10,11-dihydro-11-oxodibenz[b,f]oxepin-2-acetic acid], in “in vivo [4]”, the LD50 at 168 h worked out at 326 mg/kg. Further, the “therapeutic index compared with indomethacin” value in series [2] is on record as “far larger therapeutic indices than indomethacin”. In series [3], the “ulcerogenicity relative to indomethacin” value is “about 1/6”. In addition, the LD50 at 144 h in “in vivo [5]” was over 60 mg/kg.

Broadly, the LD50 is the dose expected to kill half of the subjects tested. Lower therefore signals greater toxicity.

Source of the values: patent publication US4238620A, “Dibenz[b,f]oxepin and dibenzo[b,f]thiepin derivatives, process for preparation thereof, method of using the same, and compositions thereof” (priority 1978, dated 1980).
